From patent US7652067B2, “Aqueous compositions containing monoester salts” (Millenium Specialty Chemicals, Inc., priority 2006, dated 2010)

Assay: Control experiment: stirring hydrophobic compound with pure water
Conditions: 18 g in water (about 876 g)

For C=C(C)[C@H]1CC=C(C)CC1 [d-limonene], the “undissolved compound recovered after settling” value was 17.5 g.
